The target of experiment [1] is ROCK1 (Homo sapiens (Human), UniProt Q13464). Kind of experiment: Z-lyte FRET assay to measure kinase inhibition, ROCK1. In kind it is biochemical.
Experiment [2] deals with ROCK2 (Homo sapiens (Human), UniProt O75116). Kind of experiment: Z-lyte FRET assay to measure kinase inhibition, ROCK2. In kind it is biochemical.

Amino acid sequences for entries named in this document (tags omitted). A change or cut given only in a name is not applied to a line headed by its entry.
UniProt Q13464: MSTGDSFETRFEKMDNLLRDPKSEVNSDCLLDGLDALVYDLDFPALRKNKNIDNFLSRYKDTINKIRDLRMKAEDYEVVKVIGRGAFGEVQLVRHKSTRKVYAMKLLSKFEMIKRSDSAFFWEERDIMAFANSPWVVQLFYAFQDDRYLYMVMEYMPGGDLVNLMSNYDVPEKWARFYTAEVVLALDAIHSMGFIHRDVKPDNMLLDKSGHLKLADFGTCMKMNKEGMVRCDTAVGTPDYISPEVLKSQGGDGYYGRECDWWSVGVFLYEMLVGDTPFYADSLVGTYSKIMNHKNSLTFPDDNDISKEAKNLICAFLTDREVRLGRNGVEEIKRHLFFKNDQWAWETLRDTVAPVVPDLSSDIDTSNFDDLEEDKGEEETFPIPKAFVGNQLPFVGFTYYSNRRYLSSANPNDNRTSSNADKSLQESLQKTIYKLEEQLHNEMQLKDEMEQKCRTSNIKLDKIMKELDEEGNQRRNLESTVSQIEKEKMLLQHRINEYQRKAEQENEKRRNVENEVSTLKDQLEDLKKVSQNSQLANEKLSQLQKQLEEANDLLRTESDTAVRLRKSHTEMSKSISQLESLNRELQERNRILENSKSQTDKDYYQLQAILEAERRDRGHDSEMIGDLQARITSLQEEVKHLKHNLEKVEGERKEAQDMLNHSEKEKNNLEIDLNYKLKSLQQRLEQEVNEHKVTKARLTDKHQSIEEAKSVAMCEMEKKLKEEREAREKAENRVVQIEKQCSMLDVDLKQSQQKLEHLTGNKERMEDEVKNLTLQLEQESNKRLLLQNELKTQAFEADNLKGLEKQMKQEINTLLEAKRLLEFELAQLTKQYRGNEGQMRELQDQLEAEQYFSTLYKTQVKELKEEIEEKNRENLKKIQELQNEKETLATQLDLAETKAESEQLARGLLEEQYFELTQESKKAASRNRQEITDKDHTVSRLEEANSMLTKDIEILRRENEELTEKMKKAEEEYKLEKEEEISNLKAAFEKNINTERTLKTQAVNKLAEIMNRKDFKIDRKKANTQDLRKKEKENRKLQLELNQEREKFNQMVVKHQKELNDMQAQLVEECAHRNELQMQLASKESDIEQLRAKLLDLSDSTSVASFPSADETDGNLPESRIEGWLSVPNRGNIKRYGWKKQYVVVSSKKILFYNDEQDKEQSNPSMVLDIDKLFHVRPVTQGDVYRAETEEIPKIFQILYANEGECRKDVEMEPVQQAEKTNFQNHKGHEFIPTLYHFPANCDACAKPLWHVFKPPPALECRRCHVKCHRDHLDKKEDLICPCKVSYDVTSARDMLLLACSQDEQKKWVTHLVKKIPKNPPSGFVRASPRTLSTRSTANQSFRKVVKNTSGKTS
UniProt O75116, whole entry, species assumed: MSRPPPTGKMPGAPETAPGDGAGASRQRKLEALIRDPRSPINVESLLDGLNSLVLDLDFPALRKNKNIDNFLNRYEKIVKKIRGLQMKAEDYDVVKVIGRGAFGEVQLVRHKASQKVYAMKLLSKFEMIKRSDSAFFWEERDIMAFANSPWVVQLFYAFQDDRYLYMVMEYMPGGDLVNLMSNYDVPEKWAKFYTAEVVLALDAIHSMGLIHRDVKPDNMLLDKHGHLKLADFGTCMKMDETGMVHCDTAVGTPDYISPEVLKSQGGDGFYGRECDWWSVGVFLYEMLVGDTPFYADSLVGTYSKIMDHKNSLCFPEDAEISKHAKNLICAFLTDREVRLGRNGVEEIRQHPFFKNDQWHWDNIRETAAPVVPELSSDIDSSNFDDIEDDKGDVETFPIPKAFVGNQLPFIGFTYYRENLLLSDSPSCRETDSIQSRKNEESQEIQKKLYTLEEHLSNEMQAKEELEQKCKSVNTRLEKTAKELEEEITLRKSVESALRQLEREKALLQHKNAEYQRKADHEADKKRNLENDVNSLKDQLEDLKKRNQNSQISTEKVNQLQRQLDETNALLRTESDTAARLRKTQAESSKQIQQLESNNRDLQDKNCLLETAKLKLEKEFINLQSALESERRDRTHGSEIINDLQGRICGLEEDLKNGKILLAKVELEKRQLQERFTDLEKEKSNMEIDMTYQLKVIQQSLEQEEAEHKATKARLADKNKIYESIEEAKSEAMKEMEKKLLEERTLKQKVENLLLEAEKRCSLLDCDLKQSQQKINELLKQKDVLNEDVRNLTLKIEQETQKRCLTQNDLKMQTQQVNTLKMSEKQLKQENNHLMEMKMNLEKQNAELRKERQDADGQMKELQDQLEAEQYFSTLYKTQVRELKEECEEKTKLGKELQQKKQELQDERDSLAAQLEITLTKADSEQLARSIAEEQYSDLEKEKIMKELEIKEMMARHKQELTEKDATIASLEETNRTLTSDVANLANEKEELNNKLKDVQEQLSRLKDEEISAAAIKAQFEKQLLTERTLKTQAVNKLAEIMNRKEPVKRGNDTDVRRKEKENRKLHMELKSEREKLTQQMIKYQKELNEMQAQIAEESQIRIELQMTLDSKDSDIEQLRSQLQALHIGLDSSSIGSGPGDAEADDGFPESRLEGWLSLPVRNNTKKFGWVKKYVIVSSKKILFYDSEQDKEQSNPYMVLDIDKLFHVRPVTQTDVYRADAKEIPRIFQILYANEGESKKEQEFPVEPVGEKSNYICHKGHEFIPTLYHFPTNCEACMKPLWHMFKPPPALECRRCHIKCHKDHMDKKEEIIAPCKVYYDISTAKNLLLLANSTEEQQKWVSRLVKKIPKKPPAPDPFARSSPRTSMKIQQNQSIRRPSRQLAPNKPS

Molecules are shown by their SMILES.

Broadly, the IC50 is the concentration that inhibits the measured activity by half. Lower therefore signals greater potency. In general, inhibition refers to the share of the control response that was lost under treatment.

In the case of `Nc1nccc(-n2ccc3cc(NC(=O)Cc4ccccc4)ccc32)n1`, the 50% inhibitory concentration (IC50) in experiment [1] amounted to 20.8 ± 6.3 µM; in experiment [2], 5.8 ± 1.4 µM. Moreover, in experiment [1] (read-out: ROCK1 % inhibition @ 50 μM), the inhibition at 50 µM turned out to be 53 ± 1%.

The values are drawn from patent US9616064B2, “Rho kinase inhibitors and methods of use” (H. LEE MOFFITT CANCER CENTER AND RESEARCH INSTITUTE, INC., priority 2011, dated 2017).
